# The entries are a selection whose mix differs from that of the whole data set. Some results for these compounds are left out of this collection, so the calls shown say nothing about other tests. Calls of active or inactive are those of the source. Calls come from the whole dose curve; as a rule, active = well fitted inhibition curve with a large enough effect; inconclusive = small, poorly fitted or top-dose-only effect; inactive = no such curve, though single readings can be large or run the other way.
# By UniProt entry, the sequences of proteins in these tests, tags left out.
# UniProt O15296, whole entry: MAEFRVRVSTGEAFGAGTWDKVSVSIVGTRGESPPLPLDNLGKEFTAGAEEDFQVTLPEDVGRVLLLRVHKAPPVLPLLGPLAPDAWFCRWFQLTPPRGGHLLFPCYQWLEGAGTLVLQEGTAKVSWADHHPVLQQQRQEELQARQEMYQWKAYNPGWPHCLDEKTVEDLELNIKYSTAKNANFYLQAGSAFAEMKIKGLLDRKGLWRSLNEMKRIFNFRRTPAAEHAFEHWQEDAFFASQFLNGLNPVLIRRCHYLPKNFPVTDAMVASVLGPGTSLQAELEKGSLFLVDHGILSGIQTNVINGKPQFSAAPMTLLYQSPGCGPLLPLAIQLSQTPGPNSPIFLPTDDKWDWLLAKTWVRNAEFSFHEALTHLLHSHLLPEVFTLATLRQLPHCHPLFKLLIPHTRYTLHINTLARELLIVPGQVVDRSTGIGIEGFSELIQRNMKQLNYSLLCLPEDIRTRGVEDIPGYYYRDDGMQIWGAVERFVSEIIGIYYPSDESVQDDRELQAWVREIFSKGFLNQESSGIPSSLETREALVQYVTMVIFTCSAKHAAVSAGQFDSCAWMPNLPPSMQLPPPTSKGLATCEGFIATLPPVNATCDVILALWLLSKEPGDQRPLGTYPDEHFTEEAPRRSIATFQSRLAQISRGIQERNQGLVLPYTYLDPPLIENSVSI
# Target: Polyunsaturated fatty acid lipoxygenase ALOX15B (Homo sapiens) (UniProt O15296)
# Assay: qHTS Assay for Inhibitors of 15-hLO-2 (15-human lipoxygenase 2); note: nearly all actives have a fitted effect of over 60% in size
# Settings: purified 15hLO-2, xylenol orange hydroperoxide absorbance; at 11.4 µM unless noted
# Description: Assay Overview: NIH Molecular Libraries Screening Centers Network [MLSCN] NIH Chemical Genomics Center [NCGC] MLSCN Grant: MH081283-01A1 PI Name: Holman, T.R., University of California, Santa Cruz Human lipoxygenase 15hLO-2 is a member of the closely related lipoxygenase family of enzymes which catalyze the site-specific oxidation of arachidonic acid to various hormone precursor molecules and as such is a candidate for drug development in a variety of disease areas, such as cancer and inflammation. Inhibition of 15hLO-2 activity was screened by utilizing arachidonic acid as a substrate. The extent of hydroperoxide product formation was measured by a secondary chromogenic reaction in which xylenol orange (XO, Sigma-Aldrich, cat. number 39,818-7) reacts with the ferric ions produced from the reaction between the hydroperoxide and ferrous ions. The Fe(III)-XO complex is characterized with red-shifted absorbance at 560 nm. A purified preparation of human 15hLO-2 was supplied by Professor Ted Holman, University of California, Santa Cruz.
# Assay Protocol: Buffer: 25 mM Hepes pH 7.5, 0.01% Triton X-100. Reagents/Controls: Buffer in columns 3 and 4 as negative control (no enzyme). Substrate solution: 45 uM arachidonic acid (Sigma-Aldrich, St. Louis, MO) final concentration dispensed throughout the plate. Enzyme: 50 nM 15hLO-2 final concentration in columns 1, 2, 5-48. Column 1 is neutral (100% activity). Column 2 contained pin-transferred titration of NDGA (nordihidroguaiaretic acid, Sigma-Aldrich, N 5023, top concentration 10 mM in DMSO, then 1:2 dilution in duplicate). (Dilution factor: 23 nL into 4 uL.) Chromogenic detection reagent (divalent iron/xylenol orange, Fe-XO): 200 uM xylenol orange plus 300 uM ferrous ammonium sulfate prepared freshly in 50 mM sulfuric acid. Assay Steps: Three uL of enzyme were dispensed to 1536-well Greiner black clear bottom plates. Compounds and controls (23 nL) were transferred via Kalypsys PinTool. The plates were incubated for 15 min at room temperature, and then 1 uL of substrate solution was added to start the reaction. After room temperature incubation for 90 minutes, 4 uL of Fe-XO solution was added to each well followed by a short spin (1000 rpm, 15 sec) and the plates were then incubated for 30 min. The absorbance at 405 and 573 nm were measured using ViewLux (Perkin-Elmer) High-throughput CCD imager and absorbance protocol settings. The 573-to-405 absorbance ratio was used to compute reaction progress.
# % is set by controls: 0 for no effect and ±100 for the full control effect.
row,SMILES,"activity change, negative = inhibition"
1,C=C(C)C#C[C@@](O)(C(=O)OC1CCN(C)CC1)c1ccccc1,inactive: -1.29%
2,CN1CC[C@H](OC(=O)[C@](O)(c2ccccc2)C2CCCC2)C1,inactive: -1.44%
3,O=C(OC1CN2CCC1CC2)C(CO)(c1ccccc1)c1ccccc1 (stereo unspecified),inactive: 2.04% [at 2.29 µM]
4,CN1CCC[C@H](OC(=O)[C@](O)(c2ccccc2)C2CCCC2)C1,inactive: -3.1%
5,CN(C)c1cccc(C(=O)NCC2(N(C)C)CCCCC2)c1,inactive: 6.51% [at 57.1 µM]
6,CC(C)N1C(=O)CC2(CCN(CCOC(=O)C(O)(c3ccccc3)c3ccccc3)CC2)C1=O,inactive: 8.15% [at 57.1 µM]
